# scFv variants of Ab-14 (light chain) against a SARS-CoV-2 spike peptide

Reference: Li et al. 2023, doi:10.1038/s41467-023-39022-2. File: FLAb, binding data.

Target: peptide PDVDLGDISGINAS, taken from heptad repeat 2 (HR2) of SARS-CoV-2 spike.

The variants keep the heavy chain, the linker and the frameworks of Ab-14 (scFv order VH, a 15-residue (Gly4Ser)3 linker, VL).
VH: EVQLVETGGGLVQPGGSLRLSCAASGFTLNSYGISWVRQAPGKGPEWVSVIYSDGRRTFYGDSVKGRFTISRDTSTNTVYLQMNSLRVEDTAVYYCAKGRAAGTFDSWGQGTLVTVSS
VL: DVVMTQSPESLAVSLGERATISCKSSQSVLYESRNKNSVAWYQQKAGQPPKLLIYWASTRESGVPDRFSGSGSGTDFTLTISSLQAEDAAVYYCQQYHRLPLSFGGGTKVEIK

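Phage display of a naive human antibody library on the peptide gave the parent. The variants were designed computationally from a first round of random CDR variants and then made and measured. Their group label is 14L_Ctrl (Ctrl: baseline library sampled from a position-specific scoring matrix, with some repeated check sequences). The assay is AlphaSeq: two haploid yeast populations carry antibody and antigen on their surface. Binding brings cells together so that they mate, and sequencing counts the barcode pairs among the diploids. Scores were corrected for input abundance and mapped to Kd with protein pairs of known affinity run in the same pool. The assay was run in six technical replicates.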

Positions count from residue 1 of the parent VL; S25A puts A in place of S.
Affinities are written as log10 Kd with Kd in nM; a lower number is a better binder.
An entry "nd" has no value in the source: the pair was not observed among the diploids in that replicate. This suggests poor binding but is not conclusive.

Variant S25A/K36S/S62T/S103W showed nd, nd, nd, nd, nd, nd (controls 1 of 18).
Variant S58T/S62V showed nd, nd, 1.04, 2.13, 1.49, nd; 1.74, 1.71, 1.78, 1.35, 2.94, 1.84; nd, nd, nd, nd, nd, nd; 1.01, 1.13, 0.64, 1.32, 1.28, 0.54; nd, nd, nd, nd, nd, nd (controls 1 of 90).
Variant Q27T/S62N showed nd, nd, 3.52, 2.00, 1.91, 2.68 (controls 0 of 18).
Variant S28E/Y97V/H98C showed nd, 1.61, 2.13, 2.04, 2.85, 1.95 (controls 0 of 18).
Variant Y31F/W56A/E61I/R99C showed nd, nd, 1.48, nd, 1.66, nd (controls 0 of 18).
Variant L30H/N37D/L102C showed nd, nd, nd, nd, nd, 3.76 (controls 1 of 18).
Variant R34T/N35S/W56G/Q95T/L102I showed 2.21, 1.96, 1.28, 1.57, 1.49, 2.56 (controls 5 of 18).
Variant Y31N/L100N showed nd, nd, nd, nd, nd, nd (controls 0 of 18).
Variant Y31I/R34E showed 0.57, 0.52, 0.63, 0.53, 0.35, 0.70 (controls 1 of 18).
Variant S25I/W56D/Q96T/S103L showed 0.18, 0.01, -0.07, -0.30, -0.12, 0.07 (controls 0 of 18).
Variant T59I/E61I showed nd, nd, nd, 2.43, nd, nd (controls 1 of 18).
Variant R34N/W56N showed 0.07, -0.05, 0.14, 0.14, 0.12, 0.25 (controls 1 of 18).
Variant S25N/W56G/A57V showed 0.73, 0.77, 0.95, 0.70, 0.48, 0.76 (controls 2 of 18).
Variant S25D/N35E/H98G showed nd, 1.84, nd, 2.46, 1.73, nd (controls 1 of 18).
Variant L30M/N35T/K36S showed nd, 2.06, 1.56, nd, 2.03, nd (controls 0 of 18).
Variant S25W/Y31M/R34T/K36P/W56K showed 1.16, 0.57, 0.31, 0.09, 0.32, 0.50 (controls 0 of 18).
Variant S25M/L30Y/Y31P/S58Y/E61V/S62T showed 2.04, 1.75, 1.90, 1.83, 2.05, 1.51 (controls 0 of 18).
Variant S25V/L30W/N35W/K36V/W56C/E61F showed nd, 2.53, nd, 3.72, nd, nd (controls 0 of 18).
Variant V29M/S38D/W56A/Q96D showed 1.01, 1.24, 1.68, 1.13, 1.31, 1.27 (controls 3 of 18).
Variant W56Y/P101V showed nd, nd, nd, nd, nd, nd (controls 0 of 18).
Variant K24A/S25C/V29D/A57G/E61N showed 0.90, 0.46, 0.30, 2.09, 0.31, 0.80 (controls 0 of 18).
Variant S33F/R34I/K36N/R99Y showed nd, nd, nd, nd, nd, nd (controls 0 of 18).
Variant S25F/V29D/L30Y/S33G/W56H/T59I/E61I showed 0.80, 1.15, 1.10, 0.75, 0.81, 0.91 (controls 0 of 18).
Variant V29A/E32Y/W56D/E61M showed 0.55, 0.36, 0.18, 0.14, 0.34, 0.49 (controls 1 of 18).
Variant R34G/L102C showed nd, nd, 1.77, 2.77, 2.54, nd (controls 1 of 18).
Variant Y31W/E32S/E61F showed nd, 2.54, nd, 2.66, nd, nd (controls 2 of 18).
Variant Q27L/S28Q/W56S/L102C showed nd, nd, nd, nd, 4.84, nd (controls 1 of 18).
Variant S25Y/N35Y/T59K/Q96I/L102K showed nd, nd, nd, nd, nd, nd (controls 0 of 18).
Variant S25I/L30D/R34T showed nd, 2.13, 2.91, nd, 2.19, 1.60 (controls 1 of 18).
Variant K24V/S33D showed 0.62, 0.53, 0.98, 0.67, 0.86, 0.73 (controls 0 of 18).
Variant Q27K/Y31P showed 2.04, 2.43, 2.64, 2.23, 1.93, 3.14 (controls 0 of 18).
Variant S25F/S33W/N35D/W56E/E61S/S103T showed -0.10, -0.04, 0.14, -0.38, -0.19, -0.10 (controls 1 of 18).
Variant H98N showed 1.24, 0.95, nd, 1.96, nd, 2.41 (controls 0 of 18).
Variant L30G/Y31D/H98Y showed 2.28, 1.10, nd, 1.27, 2.42, 1.41 (controls 1 of 18).
Variant S25F/Y97V/H98V showed nd, nd, nd, nd, nd, nd (controls 0 of 18).
Variant V39I/W56H/S62R showed 1.51, 1.60, 1.62, 1.10, 1.42, 1.66 (controls 1 of 18).
Variant K24A showed nd, nd, nd, nd, nd, nd (controls 0 of 18).
Variant R34T/N35D/W56D/T59Q/S62A showed -0.06, -0.04, -0.04, 0.02, 0.11, 0.07 (controls 1 of 18).

Top 5 of the variants detected in all replicates, tightest first:

changes	log10 Kd, replicates	signal with controls
S25F/S33W/N35D/W56E/E61S/S103T	-0.10, -0.04, 0.14, -0.38, -0.19, -0.10	1 of 18
S25I/W56D/Q96T/S103L	0.18, 0.01, -0.07, -0.30, -0.12, 0.07	0 of 18
R34T/N35D/W56D/T59Q/S62A	-0.06, -0.04, -0.04, 0.02, 0.11, 0.07	1 of 18
R34N/W56N	0.07, -0.05, 0.14, 0.14, 0.12, 0.25	1 of 18
V29A/E32Y/W56D/E61M	0.55, 0.36, 0.18, 0.14, 0.34, 0.49	1 of 18

As a blank, each scFv also met three strains without target: over all light chain designs, 4% of these pairings were detected, typically at 2.64 and seldom below 1.59. Also given: how often the same scFv was detected with the empty control strains.
The parent sequence was in this pool as ten entries: three were never detected, three once, and four in most replicates, with averages from 0.34 to 2.37.
Where one sequence has several entries in the source, the replicates are listed entry by entry, parted by semicolons.
The authors' rule: three or more of the six replicates give a measured affinity, fewer mean a poor binder.
A sequence measured in both rounds can read differently, since the two assays cover different ranges.